From patent US9394282B2, “Pyrazole carboxamides as Janus kinase inhibitors” (Merck Sharp & Dohme Corp., priority 2011, dated 2016)

By UniProt entry, the sequences of proteins in these tests, tags left out. Residues count along the entry.
UniProt P23458, 875-1153: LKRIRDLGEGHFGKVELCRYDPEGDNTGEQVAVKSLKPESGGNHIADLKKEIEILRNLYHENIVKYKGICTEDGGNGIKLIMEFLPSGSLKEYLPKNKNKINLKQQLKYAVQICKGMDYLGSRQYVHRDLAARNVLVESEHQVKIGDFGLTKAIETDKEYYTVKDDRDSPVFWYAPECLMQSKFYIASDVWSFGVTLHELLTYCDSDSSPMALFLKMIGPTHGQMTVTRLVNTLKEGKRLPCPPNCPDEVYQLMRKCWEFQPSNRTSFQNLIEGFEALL
UniProt O60674, 849-1124: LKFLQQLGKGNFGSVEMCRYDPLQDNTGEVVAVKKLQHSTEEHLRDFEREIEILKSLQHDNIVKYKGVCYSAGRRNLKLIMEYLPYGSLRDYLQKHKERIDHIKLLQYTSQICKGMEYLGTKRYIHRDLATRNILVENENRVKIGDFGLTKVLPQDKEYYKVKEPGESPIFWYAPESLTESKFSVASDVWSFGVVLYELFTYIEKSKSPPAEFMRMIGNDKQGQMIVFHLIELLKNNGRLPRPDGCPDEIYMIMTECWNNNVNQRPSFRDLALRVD

Experiments:
JAK1 = JAK1 (Homo sapiens (Human), UniProt P23458); test: Jak biochemical HTRF assay, JAK1; conditions: recombinant purified GST-tagged catalytic domain; HTRF format; [ATP] 31.8 μM
From the text: (§1) Jak Biochemical HTRF Assay Protocol
(§2) Subsequent reagent additions employed an Agilent Bravo.

JAK2 = JAK2 (Homo sapiens (Human), UniProt O60674); test: Jak biochemical HTRF assay, JAK2; conditions: recombinant purified GST-tagged catalytic domain; HTRF format; [ATP] 8.5 μM
From the text: as §1, §2

IC50 (JAK1) [nM] | IC50 (JAK2) [nM] | SMILES
46 |  | CC1(COC(=O)N2CC[C@@H](n3cc(C(N)=O)c(Nc4ccc(F)cc4)n3)[C@H](C#N)C2)CC1 (racemic) [Example 5-9, (1-methylcyclopropyl)methyl (3R,4R and 3S,4S)-4-{4-carbamoyl-3-[(4-fluorophenyl)amino]-1H-pyrazol-1-yl}-3-cyanopiperidine-1-carboxylate]
33 |  | CC(C)COC(=O)N1CC[C@@H](n2cc(C(N)=O)c(Nc3ccc(F)cc3)n2)[C@H](C#N)C1 (racemic) [Example 5-10, 2-methylpropyl (3R,4R and 3S,4S)-4-{4-carbamoyl-3-[(4-fluorophenyl)amino]-1H-pyrazol-1-yl}-3-cyanopiperidine-1-carboxylate]
15 |  | N#C[C@@H]1CN(C(=O)OCc2ccccc2)CC[C@H]1n1cc(C(N)=O)c(Nc2ccc(F)cc2)n1 (racemic) [Example 5-12, benzyl (3R,4R and 3S,4S)-4-{4-carbamoyl-3-[(4-fluorophenyl)amino]-1H-pyrazol-1-yl}-3-cyanopiperidine-1-carboxylate]
38 |  | N#C[C@@H]1CN(C(=O)OCCC2CC2)CC[C@H]1n1cc(C(N)=O)c(Nc2ccc(F)cc2)n1 (racemic) [Example 5-14, 2-cyclopropylethyl (3R,4R and 3S,4S)-4-{4-carbamoyl-3-[(4-fluorophenyl)amino]-1H-pyrazol-1-yl}-3-cyanopiperidine-1-carboxylate]
25 |  | CN(C)CCOC(=O)N1CC[C@@H](n2cc(C(N)=O)c(Nc3ccc(F)cc3)n2)[C@H](C#N)C1 (racemic) [Example 5-22, 2-(dimethylamino)ethyl (3R,4R and 3S,4S)-4-{4-carbamoyl-3-[(4-fluorophenyl)amino]-1H-pyrazol-1-yl}-3-cyanopiperidine-1-carboxylate]
38 |  | CN1CCN(CCOC(=O)N2CC[C@@H](n3cc(C(N)=O)c(Nc4ccc(F)cc4)n3)[C@H](C#N)C2)CC1 (racemic) [Example 5-24, 2-(4-methylpiperazin-1-yl)ethyl (3R,4R and 3S,4S)-4-{4-carbamoyl-3-[(4-fluorophenyl)amino]-1H-pyrazol-1-yl}-3-cyanopiperidine-1-carboxylate]
 | 61 | N#C[C@@H]1CCOC[C@H]1n1cc(C(N)=O)c(Nc2ccc(Cl)cc2)n1 (single isomer, unassigned) [Example 9-5, 3-[(4-chlorophenyl)amino]-1-[(3S,4R or 3R,4S)-4-cyanotetrahydro-2H-pyran-3-yl]-1H-pyrazole-4-carboxamide]
 | 245 | N#C[C@H]1CCOC[C@@H]1n1cc(C(N)=O)c(Nc2ccc(Cl)c(Cl)c2)n1 (single isomer, unassigned) [Example 9-10, 1-[(3R,4S or 3S,4R)-4-cyanotetrahydro-2H-pyran-3-yl]-3-[(3,4-dichlorophenyl)amino]-1H-pyrazole-4-carboxamide]
 | 5 | N#C[C@@H]1CCOC[C@H]1n1cc(C(N)=O)c(Nc2ccc(Cl)c(Cl)c2)n1 (single isomer, unassigned) [Example 9-11, 1-[(3S,4R or 3R,4S)-4-cyanotetrahydro-2H-pyran-3-yl]-3-[(3,4-dichlorophenyl)amino]-1H-pyrazole-4-carboxamide]
 | 121 | N#C[C@H]1CCOC[C@@H]1n1cc(C(N)=O)c(Nc2ccc(Cl)c(F)c2)n1 (single isomer, unassigned) [Example 9-12, 3-[(4-chloro-3-fluorophenyl)amino]-1-[(3R,4S or 3S,4R)-4-cyanotetrahydro-2H-pyran-3-yl]-1H-pyrazole-4-carboxamide]
 | 4 | N#C[C@@H]1CCOC[C@H]1n1cc(C(N)=O)c(Nc2ccc(Cl)c(F)c2)n1 (single isomer, unassigned) [Example 9-13, 3-[(4-chloro-3-fluorophenyl)amino]-1-[(3S,4R or 3R,4S)-4-cyanotetrahydro-2H-pyran-3-yl]-1H-pyrazole-4-carboxamide]
 | 4 | N#C[C@H]1CCOC[C@@H]1n1cc(C(N)=O)c(Nc2ccc(C(F)(F)F)nc2)n1 (single isomer, unassigned) [Example 9-14, 1-[(3R,4S or 3S,4R)-4-cyanotetrahydro-2H-pyran-3-yl]-3-{[6-(trifluoromethyl)pyridin-3-yl]amino}-1H-pyrazole-4-carboxamide]
 | 157 | N#C[C@@H]1CCOC[C@H]1n1cc(C(N)=O)c(Nc2ccc(C(F)(F)F)nc2)n1 (single isomer, unassigned) [Example 9-15, 1-[(3S,4R or 3R,4S)-4-cyanotetrahydro-2H-pyran-3-yl]-3-{[6-(trifluoromethyl)pyridin-3-yl]amino}-1H-pyrazole-4-carboxamide]
 | 118 | N#C[C@@H]1CCOC[C@H]1n1cc(C(N)=O)c(Nc2cnc3cc(Cl)ccc3c2)n1 (single isomer, unassigned) [Example 9-21, 3-[(7-chloroquinolin-3-yl)amino]-1-[(3S,4R or 3R,4S)-4-cyanotetrahydro-2H-pyran-3-yl]-1H-pyrazole-4-carboxamide]
 | 5 | N#C[C@H]1CCOC[C@@H]1n1cc(C(N)=O)c(Nc2cnc3cc(Cl)ccc3c2)n1 (single isomer, unassigned) [Example 9-22, 3-[(7-chloroquinolin-3-yl)amino]-1-[(3R,4S or 3S,4R)-4-cyanotetrahydro-2H-pyran-3-yl]-1H-pyrazole-4-carboxamide]
 | 17 | COC(C)(C)c1ccc(Nc2nn([C@H]3COCC[C@@H]3C#N)cc2C(N)=O)cc1 (single isomer, unassigned) [Example 9-23, 1-[(3R,4S or 3S,4R)-4-cyanotetrahydro-2H-pyran-3-yl]-3-{[4-(1-methoxy-1-methylethyl)phenyl]amino}-1H-pyrazole-4-carboxamide]
 | 0.4 | COC(C)(C)c1ccc(Nc2nn([C@@H]3COCC[C@H]3C#N)cc2C(N)=O)cc1 (single isomer, unassigned) [Example 9-25, 1-[(3S,4R or 3R,4R)-4-cyanotetrahydro-2H-pyran-3-yl]-3-{[4-(1-methoxy-1-methylethyl)phenyl]amino}-1H-pyrazole-4-carboxamide]
 | 67 | N#C[C@H]1CCOC[C@@H]1n1cc(C(N)=O)c(Nc2ccccc2)n1 (single isomer, unassigned) [Example 9-37, 1-[(3S,4R or 3R,4S)-4-cyanotetrahydro-2H-pyran-3-yl]-3-(phenylamino)-1H-pyrazole-4-carboxamide]
 | 3 | N#C[C@@H]1CCOC[C@H]1n1cc(C(N)=O)c(Nc2ccccc2)n1 (single isomer, unassigned) [Example 9-38, 1-[(3R,4S or 3S,4R)-4-cyanotetrahydro-2H-pyran-3-yl]-3-(phenylamino)-1H-pyrazole-4-carboxamide]

SMILES | IC50 (JAK1) [nM] | IC50 (JAK2) [nM]
N#C[C@@H]1CS(=O)(=O)CC[C@H]1n1cc(C(N)=O)c(Nc2ccc(F)cc2)n1 (single isomer, unassigned) [Example 13-1, 1-((3R,4R or 3S,4S)-3-cyano-1,1-dioxidotetrahydro-2H-thiopyran-4-yl)-3-((4-fluorophenyl)amino)-1H-pyrazole-4-carboxamide] |  | > 1500
N#C[C@@H]1CS(=O)(=O)CC[C@H]1n1cc(C(N)=O)c(Nc2ccc(F)cc2)n1 (single isomer, unassigned) [Example 13-2, 1-((3R,4R or 3S,4S)-3-cyano-1,1-dioxidotetrahydro-2H-thiopyran-4-yl)-3-((4-fluorophenyl)amino)-1H-pyrazole-4-carboxamide] |  | 60
